These results are taken from patent US11203613B2, “Peptidomimetic proteasome inhibitors” (CORNELL UNIVERSITY, priority 2017, dated 2021).

This assay has as its target Human Constitutive (Hu C-20S) β5 Active Subunit (Homo sapiens, UniProt P28074). The assay is described as follows: IC50 determination, human constitutive 20S proteasome β5c (suc-LLVY-AMC hydrolysis). To be noted: read-out: Hu c-20S IC50; Table 2; several values in a cell are repeat determinations. The protocol:
Experiments to determine IC50 values against β5i and β5c for compounds were carried out in 96-well plates. In brief, 1 μL of compound in a 3× series dilution in DMSO at concentration ranging from 100 μM-0.0017 μM were spotted to the bottom of a black 96-well plate with solid bottom. 100 μL of reaction buffer (20 mM THEPES, 0.5 mM EDTA, pH7.5, 0.1% BSA) containing enzyme (final concentration was 0.2 nM for c-20S, and 0.4 nM for i-20S) and substrate (25 μM for suc-LLVY-AMC for β5c and 15 μM for Ac-ANW-AMC) were dispensed into each well, and the plate was then spun at 1000× rpm for 1 minute and then shaked on a shaker for 1 minute. Time course of the hydrolysis of each well was followed by recording the fluorescence of product AMC (Ex 360 nm and Em 460 nm) on aSpectraMax M5 plate reader for 1.5-2 hours. Initial reaction velocity of each well was fit to adose-dependent inhibition equation using PRISM to determine the IC50. IC50S were determined only for β5i and β5c (Table 2). SDS was used as activator for both enzymes at concentration 0.02%.

For `CC[C@H]1CCCCN1C(=O)C[C@H](NC(=O)C1CC(C)(C)C1)C(=O)N[C@@H](C)c1nc2c(F)cccc2[nH]1`, the IC50 stood at 4.41 µM.
To `C[C@H](NC(=O)[C@H](CC(=O)N1CCCC[C@@H]1C)Nc1nc2ccccc2o1)c1ncc(-c2ccc(F)cc2F)[nH]1` [CEN-109, (S)-2-(Benzo[d]oxazol-2-ylamino)-N—((S)-1-(5-(2,4-difluorophenyl)-1H-imidazol-2-yl)ethyl)-4-((S)-2-methylpiperidin-1-yl)-4-oxobutanamide] belongs 7.26 µM.
